# In patent US20250114517A1, “SYSTEMS AND METHODS FOR MONITORING PHYSIOLOGICAL STATUS OF LIVING SUBJECT AND ADMINISTERING SUBSTANCES THEREFOR” (published 2025):
# Key:
# rat = assay: Closed-loop control of respiratory depression with the implantable device after fentanyl injection; conditions: closed loop automated naloxone delivery by the implantable device vs manual subcutaneous naloxone injection (FIG. 11)
# rats = assay: Pilot study: fentanyl-induced respiratory depression in rats, measured with a non-invasive pulse oximeter collar; conditions: rat, Naloxone 1 mg/kg i.v. after Fentanyl 20 g/kg i.v. bolus (FIG. 20 panel D)
smiles,measurement,setting,value
C=CCN1CC[C@]23c4c5ccc(O)c4O[C@H]2C(=O)CC[C@@]3(O)[C@H]1C5,SpO2 recovery after Fentanyl injection (elapsed time to recover 90% SpO2),rat,comparative recovery as subcutaneous manual injection of naloxone
same,Reversal of the fentanyl-induced decrease in SpO2,rats,reversed
